Among the data in PubChem BioAssay AID2676 (National Center for Advancing Translational Sciences (NCATS), 2010) are activation values, retold here.

Amino acid sequences for entries named in this document (tags omitted).
UniProt Q9HBX9, whole entry: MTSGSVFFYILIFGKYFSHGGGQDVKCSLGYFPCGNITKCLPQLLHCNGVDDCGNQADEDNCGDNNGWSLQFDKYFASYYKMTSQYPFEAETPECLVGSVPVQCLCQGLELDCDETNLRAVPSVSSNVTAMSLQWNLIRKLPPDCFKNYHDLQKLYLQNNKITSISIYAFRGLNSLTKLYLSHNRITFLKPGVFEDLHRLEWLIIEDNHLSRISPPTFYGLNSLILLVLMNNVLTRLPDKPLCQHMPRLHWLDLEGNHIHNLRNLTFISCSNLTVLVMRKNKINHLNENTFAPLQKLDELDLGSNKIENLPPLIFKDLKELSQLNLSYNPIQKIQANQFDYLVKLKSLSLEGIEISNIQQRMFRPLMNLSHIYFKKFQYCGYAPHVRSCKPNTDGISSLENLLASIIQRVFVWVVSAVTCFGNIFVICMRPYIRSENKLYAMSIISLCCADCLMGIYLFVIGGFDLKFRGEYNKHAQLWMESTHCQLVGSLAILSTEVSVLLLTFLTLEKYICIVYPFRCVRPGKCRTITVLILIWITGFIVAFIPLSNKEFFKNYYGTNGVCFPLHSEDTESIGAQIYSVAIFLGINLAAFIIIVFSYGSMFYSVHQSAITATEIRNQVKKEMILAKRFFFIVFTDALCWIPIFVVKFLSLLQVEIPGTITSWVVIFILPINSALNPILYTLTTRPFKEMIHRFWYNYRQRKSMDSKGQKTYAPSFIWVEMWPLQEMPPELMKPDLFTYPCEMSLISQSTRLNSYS

Each structure is given as a SMILES string. “And” between values parts separate entries of the source, which are not always exact repeats. Equal entries are not always repeated. This is a selection; strong and weak results do not stand in their true shares. Some of these compounds have results that are not shown, active ones among them. The source made the active and inactive calls. The call rests on the fitted dose curve; in most records, active means well fitted activation curve with a large enough effect; inconclusive means small, poorly fitted or top-dose-only effect; inactive means flat fitted curve, though single readings scatter.
On the % scale 0 is the no-effect control and ±100 the full control effect.

For this assay, the target named is Relaxin receptor 1 (Homo sapiens) (UniProt Q9HBX9). Nature of the assay: qHTS Assay for Agonists of the Relaxin Receptor RXFP1. Further: nearly all actives have a fitted effect of over 60% in size. As to conditions: HEK293T-RXFP1 cAMP TR-FRET, 30 min, percent of porcine relaxin response, buffer zero; at 57.5 µM (top of the series). The text has this:
NIH Chemical Genomics Center [NCGC] NIH Molecular Libraries Probe Production Centers Network [MLPCN] MLPCN Grant: R03 MH085705-01A1 Assay Submitter (PI): Alexander Agoulnik NCGC Assay Overview: The relaxin hormone is involved in the variety of biological functions in normal tissues and diseases. The role of relaxin is well-established in female reproduction and parturition, mammary gland and endometrial development, maintenance of myometrial quiescence during pregnancy. Relaxin signaling through its G protein-coupled receptor (GPCR) RXFP1 results in ECM remodeling through regulation of collagen deposition, cell invasiveness, proliferation and overall tissue homeostasis. […] Recombinant human relaxin (rhRlx) is currently being tested in clinical trials as a protective agent in congestive heart failure, in treating severe preeclampsia, and as an anti-fibrotic agent in systemic sclerosis. Upon relaxin binding RXFP1 activation leads to the activation of adenylate cyclase (AC) via Gs. cAMP will activate PKA, which phosphorylates many signaling proteins. Thus, detection of cAMP increase is an easy and reliable indication of relaxin receptor activation. To screen for agonists of the relaxin receptor, a HEK293T cell line stably transfected with RXFP1 was used. RXFP1 activation was assayed by changes in cAMP levels as detected with a time-resolved fluorescence energy transfer (TR-FRET) cAMP detection kit.
NCGC Assay Protocol Summary: This is a cell-based assay for cAMP second messenger response to screen for agonists of the RXFP1 receptor. The assay was conducted in the presence of a PDE4 inhibitor (Ro 20174). The cells were lysed and the cAMP levels were measured with a TR-FRET cAMP kit. Presence of cAMP in the cell lysate disrupts binding between the cryptate-labeled anti-cAMP and d2-labeled cAMP pair, leading to a decrease in the TR-FRET signal. Data were normalized to the controls for basal activity (buffer only) and 100% activity (29 nM porcine relaxin). The EC50 values were determined from concentration-response data modeled with the standard Hill equation 1536-well assay protocol for the HEK293 RXFP1 cAMP assay: (1) Add 3 ul HEK293 RXFP1 cell culture. 2000 cells/well in DMEM/F12, 10% FBS, 1x Pen/Strep (dispensed offline with MultiDrop Combi). (2) Incubate 16-24 hr at 37C, 5% CO2. (3) Add 1 ul 400uM Ro20174 in DPBS, 0.05% BSA, 0.005% Tween 20. (3) Add 23 nl compounds in DMSO solution. Final concentration was 0.5 - 58 uM. (4) Incubate 30 min at 37C, 5% CO2. (5) Add 1 ul cAMP-d2 in lysis buffer (HTRF cAMP HiRange kit, CisBio). (6) Add 1 ul anti-cAMP antibody-cryptate in lysis buffer (HTRF cAMP HiRange kit, CisBio). (7) Incubate 30 min at room temperature. (6) Detect the assay plate in a ViewLux plate reader (PerkinElmer) with Ex=320 nm, Em1=615 nm and Em2=665 nm. Keywords: relaxin, RXFP1, RXFP2, G-protein coupled receptor, cAMP, agonist, high throughput screening, MLSMR, MLSCN, NIH Roadmap, qHTS and NCGC
As to `CCCCOc1ccccc1C(=O)NCC1(N(C)C)CCCCC1`, the activation was inactive: -2.09%.
As for `Cc1ccccc1C(=O)NCC1(N2CCCCC2)CCCCC1`, the figure is inactive: 3.34%; as for `CN(C)C1(CNC(=O)c2ccccc2[N+](=O)[O-])CCCCC1`, inactive: 3.28%; as for `CN(C)c1ccc(C(=O)NCC2(N(C)C)CCCCC2)cc1`, inactive: -0.58%.
In the case of `CN(C)C1CCCC1OC(=O)C(O)(c1ccccc1)c1ccccc1` (centres undefined), the activation was inactive: 1.77%.
Regarding `COc1ccc(C(=O)NCC2(N(C)C)CCCCC2)cc1`, the activation is inactive: -17.3%.
Regarding `CCOc1cccc(C(=O)NCC2(N(C)C)CCCCC2)c1`, the activation was inactive: -0.731%.
As for `CCN1CCCC(OC(=O)C2(O)c3ccccc3C=Cc3ccccc32)C1` (centres undefined), the figure is inactive: -0.0317%; as for `Cc1cc(C(=O)NCC2(N3CCCCC3)CCCCC2)ccc1[N+](=O)[O-]`, inactive: 0.472%; as for `O=C(NCC1(N2CCCCC2)CCCCC1)c1cccc(Br)c1`, inactive: -0.64%.
As for `C=CCN1CCN(CCOC(=O)C(O)(c2ccccc2)c2ccccc2)CC1`, the figure is inactive: 4.11%; as for `O=C(NCC1(N2CCCCC2)CCCCC1)c1cc(F)c(F)cc1Cl`, inactive: -1.46%; as for `CN1[C@@H]2CC[C@H]1CC(OC(=O)C(O)(c1ccccc1)c1ccccc1)C2` (some centres undefined), inactive: 3.53%.
With `O=C(NCC1(N2CCCCC2)CCCCC1)c1cc([N+](=O)[O-])ccc1Cl`, the activation was inactive: 0.533%.
As for `Cc1ccc(C(=O)NCC2(N3CCCCC3)CCCCC2)cc1`, the figure is inactive: 0.355%.
As for `CN(C)C1(CNC(=O)c2ccccc2F)CCCCC1`, the figure is inactive: 0.883%.
Regarding `CCN(CC)CC(C)C(C)OC(=O)C(O)(c1ccccc1)c1ccccc1` (centres undefined), the activation was inactive: -3.15%.
As for `CN(C)C1(CNC(=O)c2cccc(Cl)c2)CCCCC1`, the figure is inactive: 0.151%.
As for `COc1cc(SC)ccc1C(=O)NCC1(N(C)C)CCCCC1`, the figure is inactive: -0.441%.
As for `CC(C)N1C(=O)CC2(CCN(CCOC(=O)C(O)(c3ccccc3)c3ccccc3)CC2)C1=O`, the figure is inactive: 3.7%; as for `CC(C)COc1ccc(C(=O)NCC2(N(C)C)CCCCC2)cc1`, inactive: 0.253%.
Turning to `COc1cccc(C(=O)NCC2(N3CCOCC3)CCCCC2)c1`, the activation is inactive: 0.912%.
`O=C(OC1CN2CCC1CC2)C(CO)(c1ccccc1)c1ccccc1` (centres undefined): the activation is inactive: -0.951%.
As for `CC(C)Oc1ccc(C(=O)NCC2(N(C)C)CCCCC2)cc1`, the figure is inactive: -0.563% and inactive: 0%.
With `CN(C)c1cccc(C(=O)NCC2(N(C)C)CCCCC2)c1`, the activation is inactive: 0.852%.
With `Cc1cccc(C(=O)NCC2(N(C)C)CCCCC2)c1`, the activation is inactive: 0.556%.
As for `COc1cc(C(=O)NCC2(N(C)C)CCCCC2)cc(OC)c1OC`, the activation was inactive: 0.415%.
As for `COc1ccc(Br)c(C(=O)NCC2(N3CCCCC3)CCCCC2)c1`, the figure is inactive: -0.156%; as for `COc1cc(C(=O)NCC2(N(C)C)CCCCC2)c([N+](=O)[O-])cc1OC`, inactive: 0.107%.
Turning to `CN(C)C1(CNC(=O)c2ccc(Br)cc2)CCCCC1`, the activation is inactive: 4.46%.
As for `O=C(NCC1(N2CCCCC2)CCCCC1)c1cccc(Cl)c1`, the figure is inactive: -0.413%.
As for `COc1cccc(C(=O)NCC2(N3CCCCC3)CCCCC2)c1`, the activation was inactive: -1.14%.
As for `COc1ccc(Cl)cc1C(=O)NCC1(N(C)C)CCCCC1`, the figure is inactive: 0.177%.
As for `COc1ccc(C(=O)NCC2(N(C)C)CCCCC2)cc1Cl`, the figure is inactive: 0.279%.
